Test results as given in paper PMC12102759 (Protein Science : A Publication of the Protein Society, 2025).

Key:
G3BP1 NFT2 = assay type: binding, human; details: DMS-CoV phage selection against G3BP1, log2 of summed NGS counts
YES SH3 = assay type: binding, human

Substance	NGS_counts log2_total (G3BP1 NFT2)	PSSM value of the single amino acid variant (DMS by phage display) (YES SH3)
Ac-APRIEFGGPSDSTGSY-NH2 [N T15E]	7.81	
Ac-APRITFGGPYDSTGSY-NH2 [N S21Y]	9.51	
Ac-APLITFGGPSDSTGSY-NH2 [N R14L]	13.86	
Ac-DPRITFGGPSDSTGSY-NH2 [N A12D]	9.73	
Ac-APRITFGAPSDSTGSY-NH2 [N G19A]	11.54	
Ac-APRITFGGFSDSTGSY-NH2 [N P20F]	6.48	
Ac-AERITFGGPSDSTGSY-NH2 [N P13E]	9.56	
Ac-APRITFGGPSDSTGSY-NH2 [N wt]	7.72	
TSSIQSRPLPSPPKFT T1G (GSSIQSRPLPSPPKFT)		0
TSSIQSRPLPSPPKFT I4N (TSSNQSRPLPSPPKFT)		0.02291
TSSIQSRPLPSPPKFT P13S (TSSIQSRPLPSPSKFT)		0.02019
TSSIQSRPLPSPPKFT F15N (TSSIQSRPLPSPPKNT)		0.01201
TSSIQSRPLPSPPKFT I4D (TSSDQSRPLPSPPKFT)		0.01426
TSSIQSRPLPSPPKFT P13M (TSSIQSRPLPSPMKFT)		0.02494
TSSIQSRPLPSPPKFT P12N (TSSIQSRPLPSNPKFT)		0.008113
TSSIQSRPLPSPPKFT S6P (TSSIQPRPLPSPPKFT)		0.02186
TSSIQSRPLPSPPKFT R7I (TSSIQSIPLPSPPKFT)		0
TSSIQSRPLPSPPKFT P8K (TSSIQSRKLPSPPKFT)		0.005237
TSSIQSRPLPSPPKFT I4H (TSSHQSRPLPSPPKFT)		0.03323
TSSIQSRPLPSPPKFT K14G (TSSIQSRPLPSPPGFT)		0.0198

Substance	NGS_counts log2_total (G3BP1 NFT2)	PSSM value of the single amino acid variant (DMS by phage display) (YES SH3)
TSSIQSRPLPSPPKFT P13K (TSSIQSRPLPSPKKFT)		0.0006935
TSSIQSRPLPSPPKFT Q5A (TSSIASRPLPSPPKFT)		0.07011
TSSIQSRPLPSPPKFT R7N (TSSIQSNPLPSPPKFT)		0.002421
TSSIQSRPLPSPPKFT P12Q (TSSIQSRPLPSQPKFT)		0.3066
TSSIQSRPLPSPPKFT R7R		0.05251
TSSIQSRPLPSPPKFT S3P (TSPIQSRPLPSPPKFT)		0.00677
TSSIQSRPLPSPPKFT P13F (TSSIQSRPLPSPFKFT)		0.02856
TSSIQSRPLPSPPKFT K14N (TSSIQSRPLPSPPNFT)		0.01714
TSSIQSRPLPSPPKFT I4Q (TSSQQSRPLPSPPKFT)		0.03082
TSSIQSRPLPSPPKFT R7G (TSSIQSGPLPSPPKFT)		0.03162
TSSIQSRPLPSPPKFT S6D (TSSIQDRPLPSPPKFT)		0.04418
TSSIQSRPLPSPPKFT P8Y (TSSIQSRYLPSPPKFT)		0.05615
TSSIQSRPLPSPPKFT P12M (TSSIQSRPLPSMPKFT)		0.002721
TSSIQSRPLPSPPKFT T1M (MSSIQSRPLPSPPKFT)		0.03829
TSSIQSRPLPSPPKFT T1T		0.1043
TSSIQSRPLPSPPKFT S11I (TSSIQSRPLPIPPKFT)		0.01708
TSSIQSRPLPSPPKFT S11E (TSSIQSRPLPEPPKFT)		0.5023
TSSIQSRPLPSPPKFT R7K (TSSIQSKPLPSPPKFT)		0.1916
TSSIQSRPLPSPPKFT S6M (TSSIQMRPLPSPPKFT)		0.2397
